Tests used:
Homo sapiens = organism: Homo sapiens; assay: Selectivity for human NOP receptor to human MOP receptor
[1] = target: Nociceptin receptor (Homo sapiens) (UniProt P41146); assay: Agonist activity at human NOP receptor expressed in CHO cells assessed as inhibition of forskolin-stimulated cAMP production after 2 hrs relative to nociceptin; design: scale not given: the % may be the effect or the level left

Sequences of proteins named here, by UniProt entry; tags and fusion partners are left off. A change or cut given only in a name is not applied to a line headed by its entry.
UniProt P41146: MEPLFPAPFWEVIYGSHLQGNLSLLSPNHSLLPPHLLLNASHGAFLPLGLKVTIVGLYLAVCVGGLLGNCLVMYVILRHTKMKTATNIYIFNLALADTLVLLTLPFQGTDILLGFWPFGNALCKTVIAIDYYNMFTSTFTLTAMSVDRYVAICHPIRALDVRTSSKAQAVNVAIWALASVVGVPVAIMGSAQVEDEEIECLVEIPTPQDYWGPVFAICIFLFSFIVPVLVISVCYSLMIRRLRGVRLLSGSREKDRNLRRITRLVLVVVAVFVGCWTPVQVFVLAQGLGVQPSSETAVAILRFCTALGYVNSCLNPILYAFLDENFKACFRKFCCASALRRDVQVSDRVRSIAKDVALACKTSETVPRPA

| SMILES | Ratio Ki (Homo sapiens) | Activity [1] |
| --- | --- | --- |
| CNC(=O)Cn1c(=O)n(C2CCN(Cc3ccccc3-c3ccccc3)CC2)c2ccccc21 | 0.2 |  |
| CNC(=O)CN1c2ccccc2N(C2CCN(C3CCCCCC3)CC2)S1(=O)=O | 29 | 81% |
| CNC(=O)Cn1c(=O)n(C2CCN(C3CCC(C)(C)CC3(C)C)CC2)c2ccccc21 (configuration not stated) | 10 |  |
| CNC(=O)CN1Cc2ccccc2N(C2CCN(Cc3ccc(C)c4ccccc34)CC2)C1=O | 0.9 |  |
| CNC(=O)Cn1c(=O)n(C2CCN(C3CCCCCCC3)CC2)c2ccccc21 | 41 |  |
| CNC(=O)CN1C(=O)OC2(CCN(C3CCCCCCCCC3)CC2)c2ccccc21 | 1 | 82% |
| CNC(=O)Cn1c(=O)n(C2CCN(C3CCC(C)(C)CC3)CC2)c2ccccc21 | 54 |  |
| CNC(=O)Cn1c(=O)n(C2CCN(C3CCCC3(C)C)CC2)c2ccccc21 (configuration not stated) | 5.6 |  |
| CNC(=O)Cn1c(=O)n(C2CCN(Cc3ccc(C)c4ccccc34)CC2)c2ccccc21 | 51 |  |
| CNC(=O)CN1N=C(c2ccccc2)C2(CCN(C3CCC(C(C)(C)C)CC3)CC2)C1=O (configuration not stated) | 0.2 | 109% |
| CNC(=O)CN1Cc2ccccc2N(C2CCN(C3CCCCCCCCC3)CC2)S1(=O)=O | 3.7 |  |
| CNC(=O)CN1Cc2ccccc2N(C2CCN(C3CCC(C(C)C)CC3)CC2)C1=O (configuration not stated) | 1 |  |
| CNC(=O)Cn1c(=O)n(C2CCN(CC3CCCCC3)CC2)c2ccccc21 | 7.3 |  |
| CNC(=O)CN1C(=O)OC2(CCN(C3CCC(C(C)C)CC3)CC2)c2ccccc21 (configuration not stated) | 1 | 78% |
| CNC(=O)Cn1c(=O)n(C2CCN(C3CCCCCC3)CC2)c2ccccc21 | 51 |  |
| CNC(=O)CN1c2ccccc2N(C2CCN(C3CCCCCCCCC3)CC2)S1(=O)=O | 43 | 104% |
| CNC(=O)Cn1c(=O)n(C2CCN(CCC(C)(C)C)CC2)c2ccccc21 | 15 |  |
| CNC(=O)Cn1c(=O)n(C2CCN(C3CCCCCCCCC3)CC2)c2ccccc21 | 55 |  |

| SMILES | Ratio Ki (Homo sapiens) | Activity [1] |
| --- | --- | --- |
| CNC(=O)Cn1c(=O)n(C2CCN(C3CCC(C(C)C)CC3)CC2)c2ccccc21 (configuration not stated) | 118 |  |
| CNC(=O)CN1c2ccccc2N(C2CCN(C3CCC4CCCCC4C3)CC2)S1(=O)=O (configuration not stated) | 38 | 104% |
| CNC(=O)CN1C(=O)OC2(CCN(C3CCCCCC3)CC2)c2ccccc21 | 0.2 |  |
| CNC(=O)CN1N=C(c2ccccc2)C2(CCN(C3CCCCCCCCC3)CC2)C1=O | 0.5 | 81% |
| CNC(=O)Cn1c(=O)n(C2CCN([C@H]3CC[C@H](C(C)C)CC3)CC2)c2ccccc21 | 1 |  |
| CNC(=O)Cn1c(=O)n(C2CCN(C3CCCC4(CCCCC4)C3)CC2)c2ccccc21 (configuration not stated) | 26 |  |
| CNC(=O)CN1C(=O)OC2(CCN(C3CCC(C(C)(C)C)CC3)CC2)c2ccccc21 (configuration not stated) | 0.4 |  |
| CNC(=O)Cn1c(=O)n(C2CCN(Cc3ccc(OC)c4ccccc34)CC2)c2ccccc21 | 6.7 |  |
| CNC(=O)CN1N=C(c2ccccc2)C2(CCN(C3CCC(C(C)C)CC3)CC2)C1=O (configuration not stated) | 0.5 | 75% |
| CNC(=O)CN1Cc2ccccc2N(C2CCN(C3CCC4CCCCC4C3)CC2)S1(=O)=O (configuration not stated) | 2.8 | 84% |
| CNC(=O)Cn1c(=O)n(C2CCN(C3CCC4CCCCC4C3)CC2)c2ccccc21 (configuration not stated) | 36 |  |
| CNC(=O)CN1Cc2ccccc2N(C2CCN(C3CCC(C(C)C)CC3)CC2)S1(=O)=O (configuration not stated) | 4.1 | 95% |
| CNC(=O)CN1N=C(c2ccccc2)C2(CCN(C3CCC4CCCCC4C3)CC2)C1=O (configuration not stated) | 0.8 | 74% |
| CNC(=O)Cn1c(=O)n(C2CCN([C@H]3CC[C@@H](C(C)C)CC3)CC2)c2ccccc21 | 99 |  |
| CNC(=O)CN1c2ccccc2N(C2CCN(C3CCC(C(C)C)CC3)CC2)S1(=O)=O (configuration not stated) | 54 | 110% |
| CNC(=O)Cn1c(=O)n(C2CCN(C3CCC(C(C)(C)C)CC3)CC2)c2ccccc21 (configuration not stated) | 14 |  |
| CNC(=O)Cn1c(=O)n(C2CCN(Cc3cccc4ccccc34)CC2)c2ccccc21 | 2.3 |  |
